Article PMC7272617 (Scientific Reports, 2020)

Assays:
[1] = tested on: human red blood cells (hRBCs); experiment: Hemolytic activity, hemoglobin release; conditions: 2% hRBC in PBS, 1 h, 37 °C, absorbance 405 nm; tested 0.98 to 250 µg/ml
[2] = tested on: Escherichia coli ATCC 25922; conditions: E. coli ATCC 25922; MHB, 37 °C, 24 h
[3] = tested on: Staphylococcus aureus ATCC 25923; conditions: S. aureus ATCC 25923; MHB, 37 °C, 24 h

Q: What does the source list for `CC[C@H](C)[C@H](NC(=O)CN)C(=O)NCC(=O)N[C@@H](C)C(=O)N[C@H](C(=O)N[C@@H](CC(C)C)C(=O)N[C@@H](CCCCN)C(=O)N[C@H](C(=O)N[C@@H](CC(C)C)C(=O)N[C@H](C(=O)N[C@H](C(=O)NCC(=O)N[C@@H](CC(C)C)C(=O)N1CCC[C@H]1C(=O)N[C@@H](C)C(=O)N[C@@H](CC(C)C)C(=O)N[C@H](C(=O)N[C@@H](CO)C(=O)N[C@@H](Cc1c[nH]c2ccccc12)C(=O)N[C@H](C(=O)N[C@@H](CCCCN)C(=O)N[C@@H](CCCNC(=N)N)C(=O)N[C@@H](CCCCN)C(=O)N[C@@H](CCCNC(=N)N)C(=O)N[C@@H](CCC(N)=O)C(=O)N[C@@H](CCC(N)=O)C(N)=O)[C@@H](C)CC)[C@@H](C)CC)[C@@H](C)O)[C@@H](C)O)C(C)C)C(C)C` [Melittin, reference compound]?
A: MHC (minimum concentration that caused 10% hemolysis of human red blood cells) [1]: ˂0.98 µg/ml; MIC [2]: 31.25 µg/mL (≈ 11 µM); MIC [3]: 3.91 µg/mL (≈ 1.37 µM)

Converted amounts (≈) assume the structure as drawn.
